Columns and labels:
narcotised guinea pigs = assay: Blood pressure experiments on guinea pigs, i.v.; assay type: in vivo, guinea pig
mongrel cats = assay: Inotropic and heart-circulatory effectiveness on narcotised cats, intravenous; assay type: in vivo, cat; details: 6 animals; for blood pressure before / dp/dt (inotropism) before / heart frequency before: before administration

`O=[N+]([O-])O[C@H]1CO[C@H]2[C@@H]1OC[C@H]2O[N+](=O)[O-]` was tested, and the blood pressure after (narcotised guinea pigs; 0.25 mg/kg i.v.) was 57.0 ± 2.10 mm.Hg, the “blood pressure Δ” value (narcotised guinea pigs; 0.25 mg/kg i.v.) was -11.70 mm.Hg and the “blood pressure Δ” value (narcotised guinea pigs; 1.00 mg/kg i.v.) was -19.70 mm.Hg. For the same compound, the “blood pressure Δ” value (narcotised guinea pigs; 2.50 mg/kg i.v.) was -29.00 mm.Hg, the blood pressure before (mongrel cats; 0.25 mg/kg i.v.) was 98.8 mm.Hg and the “dp/dt (inotropism) before” value (mongrel cats; 0.25 mg/kg i.v.) was 7650 mm.Hg/sec. For the same compound, the heart frequency before (mongrel cats; 0.25 mg/kg i.v.) was 165.3 min⁻¹, the “blood pressure WD” value (mongrel cats; 0.25 mg/kg i.v.) was 13.0 min and the blood pressure after (mongrel cats; 0.25 mg/kg i.v.) was 81.2 mm.Hg. The “blood pressure Δ” value (mongrel cats; 0.25 mg/kg i.v.) was -17.6 mm.Hg, the “dp/dt (inotropism) after” value (mongrel cats; 0.25 mg/kg i.v.) was 8050 mm.Hg/sec and the “dp/dt (inotropism) Δ” value (mongrel cats; 0.25 mg/kg i.v.) was “+400 mm.Hg/sec”. The heart frequency after (mongrel cats; 0.25 mg/kg i.v.) was 171.7 min⁻¹, the “heart frequency Δ” value (mongrel cats; 0.25 mg/kg i.v.) was “+6.4 min^-1” and the blood pressure before (mongrel cats; 0.50 mg/kg i.v.) was 95.8 mm.Hg. The “dp/dt (inotropism) before” value (mongrel cats; 0.50 mg/kg i.v.) was 7333 mm.Hg/sec, the heart frequency before (mongrel cats; 0.50 mg/kg i.v.) was 167.0 min⁻¹ and the “blood pressure WD” value (mongrel cats; 0.50 mg/kg i.v.) was 16.5 min. The blood pressure after (mongrel cats; 0.50 mg/kg i.v.) was 73.7 mm.Hg, the “blood pressure Δ” value (mongrel cats; 0.50 mg/kg i.v.) was -22.2 mm.Hg and the “dp/dt (inotropism) after” value (mongrel cats; 0.50 mg/kg i.v.) was 7667 mm.Hg/sec. The “dp/dt (inotropism) Δ” value (mongrel cats; 0.50 mg/kg i.v.) was “+334 mm.Hg/sec”, the heart frequency after (mongrel cats; 0.50 mg/kg i.v.) was 173.3 min⁻¹ and the “heart frequency Δ” value (mongrel cats; 0.50 mg/kg i.v.) was “+6.3 min^-1”. For the same compound, the blood pressure before (mongrel cats; 1.00 mg/kg i.v.) was 96.5 mm.Hg, the “dp/dt (inotropism) before” value (mongrel cats; 1.00 mg/kg i.v.) was 6983 mm.Hg/sec and the heart frequency before (mongrel cats; 1.00 mg/kg i.v.) was 166.7 min⁻¹. The “blood pressure WD” value (mongrel cats; 1.00 mg/kg i.v.) was 16.0 min, the blood pressure after (mongrel cats; 1.00 mg/kg i.v.) was 69.2 mm.Hg and the “blood pressure Δ” value (mongrel cats; 1.00 mg/kg i.v.) was -27.3 mm.Hg. For the same compound, the “dp/dt (inotropism) after” value (mongrel cats; 1.00 mg/kg i.v.) was 7583 mm.Hg/sec, the “dp/dt (inotropism) Δ” value (mongrel cats; 1.00 mg/kg i.v.) was “+600 mm.Hg/sec” and the heart frequency after (mongrel cats; 1.00 mg/kg i.v.) was 174.3 min⁻¹. For the same compound, the “heart frequency Δ” value (mongrel cats; 1.00 mg/kg i.v.) was “+7.6 min^-1”, the blood pressure before (mongrel cats; 2.50 mg/kg i.v.) was 92.5 mm.Hg and the “dp/dt (inotropism) before” value (mongrel cats; 2.50 mg/kg i.v.) was 6450 mm.Hg/sec. The heart frequency before (mongrel cats; 2.50 mg/kg i.v.) was 162.0 min⁻¹, the “blood pressure WD” value (mongrel cats; 2.50 mg/kg i.v.) was > 10 min and the blood pressure after (mongrel cats; 2.50 mg/kg i.v.) was 60.7 mm.Hg. For the same compound, the “blood pressure Δ” value (mongrel cats; 2.50 mg/kg i.v.) was -31.8 mm.Hg, the “dp/dt (inotropism) after” value (mongrel cats; 2.50 mg/kg i.v.) was 7567 mm.Hg/sec and the “dp/dt (inotropism) Δ” value (mongrel cats; 2.50 mg/kg i.v.) was “+1117 mm.Hg/sec”. For the same compound, the heart frequency after (mongrel cats; 2.50 mg/kg i.v.) was 170.7 min⁻¹.
